# According to PubChem BioAssay:
# Sequences of proteins named here, by UniProt entry; tags and fusion partners are left off. A change or cut given only in a name is not applied to a line headed by its entry.
# UniProt Q04721: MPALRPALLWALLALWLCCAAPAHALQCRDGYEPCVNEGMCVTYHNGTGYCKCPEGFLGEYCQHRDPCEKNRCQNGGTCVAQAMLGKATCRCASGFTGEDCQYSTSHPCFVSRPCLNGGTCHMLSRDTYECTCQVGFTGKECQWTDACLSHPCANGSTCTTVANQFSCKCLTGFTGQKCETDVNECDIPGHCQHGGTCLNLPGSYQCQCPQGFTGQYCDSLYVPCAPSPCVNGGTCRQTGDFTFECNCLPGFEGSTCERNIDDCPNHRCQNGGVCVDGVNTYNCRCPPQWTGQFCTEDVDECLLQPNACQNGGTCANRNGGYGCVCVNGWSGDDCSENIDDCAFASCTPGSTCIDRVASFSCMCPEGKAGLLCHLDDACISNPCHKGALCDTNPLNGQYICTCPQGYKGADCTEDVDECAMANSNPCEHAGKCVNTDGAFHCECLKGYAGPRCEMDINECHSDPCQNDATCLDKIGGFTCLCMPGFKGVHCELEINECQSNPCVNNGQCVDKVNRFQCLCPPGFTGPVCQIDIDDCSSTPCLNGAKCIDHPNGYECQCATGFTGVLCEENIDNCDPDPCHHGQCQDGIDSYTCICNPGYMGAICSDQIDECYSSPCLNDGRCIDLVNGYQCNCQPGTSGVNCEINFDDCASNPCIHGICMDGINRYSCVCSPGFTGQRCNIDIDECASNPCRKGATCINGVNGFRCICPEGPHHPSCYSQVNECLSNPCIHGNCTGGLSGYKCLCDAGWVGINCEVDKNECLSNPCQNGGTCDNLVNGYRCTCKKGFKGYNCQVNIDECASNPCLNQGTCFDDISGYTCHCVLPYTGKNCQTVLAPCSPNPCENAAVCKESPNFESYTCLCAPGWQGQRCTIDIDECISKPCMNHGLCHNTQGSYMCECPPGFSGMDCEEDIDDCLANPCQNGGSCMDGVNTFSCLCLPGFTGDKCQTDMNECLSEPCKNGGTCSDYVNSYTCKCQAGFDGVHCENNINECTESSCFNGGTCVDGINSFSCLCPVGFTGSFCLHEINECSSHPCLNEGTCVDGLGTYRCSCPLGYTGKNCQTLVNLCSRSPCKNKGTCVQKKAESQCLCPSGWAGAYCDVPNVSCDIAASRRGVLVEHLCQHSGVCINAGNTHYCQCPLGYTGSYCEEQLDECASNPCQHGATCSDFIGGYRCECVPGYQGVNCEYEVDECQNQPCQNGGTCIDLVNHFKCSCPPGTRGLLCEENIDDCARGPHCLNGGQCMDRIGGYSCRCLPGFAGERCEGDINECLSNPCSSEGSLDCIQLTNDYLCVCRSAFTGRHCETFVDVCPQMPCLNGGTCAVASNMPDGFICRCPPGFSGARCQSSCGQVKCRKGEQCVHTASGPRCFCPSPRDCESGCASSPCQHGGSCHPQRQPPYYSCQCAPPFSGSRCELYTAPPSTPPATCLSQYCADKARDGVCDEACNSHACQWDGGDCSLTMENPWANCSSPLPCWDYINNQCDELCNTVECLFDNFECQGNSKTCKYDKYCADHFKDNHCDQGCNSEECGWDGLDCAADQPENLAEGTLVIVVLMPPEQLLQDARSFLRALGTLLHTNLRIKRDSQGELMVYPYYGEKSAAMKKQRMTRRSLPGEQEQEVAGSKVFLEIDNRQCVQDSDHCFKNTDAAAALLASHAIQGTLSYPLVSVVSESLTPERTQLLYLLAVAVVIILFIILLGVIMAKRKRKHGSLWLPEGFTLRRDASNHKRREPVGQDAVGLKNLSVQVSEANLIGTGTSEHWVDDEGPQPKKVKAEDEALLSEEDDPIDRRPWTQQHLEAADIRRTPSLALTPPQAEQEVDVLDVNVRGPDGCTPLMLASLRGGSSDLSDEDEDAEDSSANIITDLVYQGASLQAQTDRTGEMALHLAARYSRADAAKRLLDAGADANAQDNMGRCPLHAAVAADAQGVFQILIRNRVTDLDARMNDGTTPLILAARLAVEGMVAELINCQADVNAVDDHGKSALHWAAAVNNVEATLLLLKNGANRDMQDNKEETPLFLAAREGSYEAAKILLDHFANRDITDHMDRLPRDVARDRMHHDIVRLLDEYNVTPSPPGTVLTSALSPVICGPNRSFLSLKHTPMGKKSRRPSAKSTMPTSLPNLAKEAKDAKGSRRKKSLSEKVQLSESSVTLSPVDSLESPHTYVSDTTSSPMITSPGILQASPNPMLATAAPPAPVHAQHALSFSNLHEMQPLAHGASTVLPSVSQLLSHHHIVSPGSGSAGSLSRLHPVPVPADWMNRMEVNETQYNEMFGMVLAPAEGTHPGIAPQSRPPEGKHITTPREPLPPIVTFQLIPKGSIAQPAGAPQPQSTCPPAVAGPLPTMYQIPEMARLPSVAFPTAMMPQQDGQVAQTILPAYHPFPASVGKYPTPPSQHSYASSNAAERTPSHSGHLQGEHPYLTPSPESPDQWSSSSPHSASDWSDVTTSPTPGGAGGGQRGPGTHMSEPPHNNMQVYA
# UniProt Q02297: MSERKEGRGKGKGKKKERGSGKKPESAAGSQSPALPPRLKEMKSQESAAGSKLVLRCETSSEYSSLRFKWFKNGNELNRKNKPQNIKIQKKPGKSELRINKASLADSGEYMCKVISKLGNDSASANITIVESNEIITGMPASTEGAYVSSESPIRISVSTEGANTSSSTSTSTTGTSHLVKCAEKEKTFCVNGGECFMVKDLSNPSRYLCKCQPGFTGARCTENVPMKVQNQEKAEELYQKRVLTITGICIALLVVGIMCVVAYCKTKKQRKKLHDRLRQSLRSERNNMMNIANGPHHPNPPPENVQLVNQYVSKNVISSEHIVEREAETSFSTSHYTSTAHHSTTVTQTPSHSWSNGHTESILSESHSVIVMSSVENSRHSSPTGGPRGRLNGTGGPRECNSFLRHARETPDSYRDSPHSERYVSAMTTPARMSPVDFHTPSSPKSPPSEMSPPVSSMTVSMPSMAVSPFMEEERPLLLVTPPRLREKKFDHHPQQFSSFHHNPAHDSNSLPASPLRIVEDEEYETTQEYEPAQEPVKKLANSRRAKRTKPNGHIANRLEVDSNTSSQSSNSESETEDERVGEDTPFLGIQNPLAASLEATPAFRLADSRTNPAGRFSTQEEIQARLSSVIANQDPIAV
# The list shows a part of the results, in another mix than the full data. Calls of active or inactive are those of the source.
# Columns and labels:
# [1] = small molecules captured by biotinylated probe aFSTL3 – biochemical, small-molecule microarray, fluorescence 635/667, stem cell growth factor project, primary screen (AID 1064); conditions: higher = more signal;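 note: measures binding of the biotinylated anti-FSTL3 antibody to printed compounds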
# [2] = binders from COS7 lysate, DM2A8 probe, primary screen, torsin A project, cell lysate, small-molecule microarray, fluorescence 635/667 (AID 1065); conditions: higher = more signal, COS7 lysate expressing mutant human TOR1A
# [3] = small molecules captured by biotinylated probe aFGF2 – biochemical, small-molecule microarray, fluorescence 635/667, stem cell growth factor project, primary screen (AID 1067); conditions: higher = more signal;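 note: measures binding of biotinylated aFGF2 protein to printed compounds on slides; z-score merges feature fluorescence and signal-to-noise across triplicate slides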
# [4] = small molecules captured by biotinylated probe aFGF10 – biochemical, small-molecule microarray, fluorescence 635/667, stem cell growth factor project, primary screen (AID 1071); conditions: higher = more signal;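 note: score merges 667 nm spot intensity and signal to noise from triplicate slides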
# [5] = biological target: Neurogenic locus notch homolog protein 2 (Homo sapiens) (UniProt Q04721); test: small molecules binding Notch2 protein – biochemical, small-molecule microarray, 635 nm fluorescence, stem cell growth factors, primary screen (AID 1073); conditions: higher = more signal
# [6] = biological target: Pro-neuregulin-1, membrane-bound isoform (Homo sapiens) (UniProt Q02297); test: small molecules binding neuregulin-1 protein – biochemical, small-molecule microarray, fluorescence 635/667, psychiatric disease protein project, primary screen (AID 1075); conditions: NRG1 binding, 635 nm fluorescence, higher = more signal;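 note: score combines 667 nm spot fluorescence with signal to noise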
# [7] = test system: Neuregulin-1 EGF-like domain; test: small molecules binding NRG1 EGF domain – biochemical, small-molecule microarray, 635 nm fluorescence, primary screen (AID 1081); conditions: higher = more signal;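 note: binding of the protein to compounds printed on small-molecule microarray slides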
# [8] = FRG1 expression reporter modulators in myotubes – cell-based, C2C12 myotubes, firefly/Renilla luciferase, luminescence, FRG1 inhibition for FSHD, primary screen (AID 1084); conditions: FRG1 promoter luciferase, higher = more signal, called active from +8 up or from −8 down
# [9] = small molecules captured by biotinylated probe aFST – biochemical, small-molecule microarray, fluorescence 635/667, stem cell growth factor project, primary screen (AID 1086); conditions: higher = more signal;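 note: score merges 667 nm fluorescence with signal-to-noise of each printed compound spot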
# [10] = binders of probe aHhip on microarray, primary screen, stem cell growth factor project, biochemical, small-molecule microarray, fluorescence 635/667 (AID 1087); conditions: higher = more signal;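 note: score merges spot fluorescence at 667nm with spot signal to noise ratio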
SMILES,composite z-score [1],composite z-score [2],composite z-score [3],composite z-score [4],composite z-score [5],composite z-score [6],composite z-score [7],z-score [8],composite z-score [9],composite z-score [10]
COP(=O)(/N=C1/CC(c2ccc(CO)cc2)=CC(c2cccs2)N1C)OC (stereo not given),1.45,0.199,-0.0006,-0.0456,-0.358,1.21,0.402,inactive: 3.2,0.64,0.194
COP(=O)(/N=C1/CC(c2ccc(CO)cc2)=CC(C2CC2)N1Cc1sc2ccccc2c1Cl)OC (stereo not given),0.84,1.71,0.085,1.18,1.36,1.82,0.698,inactive: -2.75,1.34,-0.0546
O=P(/N=C1/CC(c2ccc(CO)cc2)=CC(C2CC2)N1Cc1cc2c(cc1Br)OCO2)(Oc1ccccc1)Oc1ccccc1 (stereo not given),-0.134,1.24,0.0418,0.89,1.38,1.99,1.37,inactive: -3.18,0.55,0.829
O=P(/N=C1/CC(CCCO)=CC(c2ccc(CN3CCCC3)cc2)N1Cc1sc2ccccc2c1Cl)(Oc1ccccc1)Oc1ccccc1 (stereo not given),0.125,0.0246,-0.0238,0.0491,-0.209,2.15,0.83,inactive: 0.349,0.821,0.0373
COP(=O)(/N=C1/CC(CCCO)=CC(C2CC2)N1C)OC (stereo not given),-0.489,0.418,-0.0963,0.0096,0.216,0.109,0.0686,inactive: -1.32,0.155,-0.476
COP(=O)(/N=C1/CC(CCCO)=CC(C)N1Cc1cccc(OC(F)(F)F)c1)OC (stereo not given),-0.144,0.886,-0.0416,0.356,0.215,1.57,0.337,inactive: -1.63,0.686,0.245
COP(=O)(/N=C1/CC(CCCO)=CC(c2cccs2)N1C)OC (stereo not given),1.42,0.35,0.252,0.309,-0.185,1.25,1,inactive: -0.193,1.19,0.568
CN1/C(=N\P(=O)(Oc2ccccc2)Oc2ccccc2)CC(c2ccc(CO)cc2)=CC1c1cccs1 (stereo not given),-0.811,0.857,-0.0274,0.231,0.567,2.38,1.02,inactive: -4.99,-0.213,-0.4
O=P(/N=C1/CC(CCCO)=CC(c2cccs2)N1Cc1cccc(OC(F)(F)F)c1)(Oc1ccccc1)Oc1ccccc1 (stereo not given),0.352,0.882,0.0198,0.307,1.15,1.57,0.983,inactive: -0.793,0.578,-0.0645
O=P(/N=C1/CC(c2ccc(CO)cc2)=CC(C2CC2)N1Cc1sc2ccccc2c1Cl)(Oc1ccccc1)Oc1ccccc1 (stereo not given),-0.279,0.291,-0.0125,1.16,1.34,1.7,1.24,inactive: -1.06,0.566,0.0373
COP(=O)(/N=C1/CC(CCCO)=CC(C2CC2)N1Cc1cccc(OC(F)(F)F)c1)OC (stereo not given),-0.0191,-0.0918,-0.116,-0.0523,-0.618,0.729,-0.389,inactive: -1.07,0.226,0.0052
O=P(/N=C1/CC(c2ccc(CO)cc2)=CC(c2cccs2)N1Cc1cccc(OC(F)(F)F)c1)(Oc1ccccc1)Oc1ccccc1 (stereo not given),0.0205,0.25,-0.0945,0.356,1.4,2.02,1.08,inactive: -4.41,0.836,-0.179
CN1/C(=N\P(=O)(Oc2ccccc2)Oc2ccccc2)CC(CCCO)=CC1c1cccs1 (stereo not given),0.899,0.386,0.0732,0.0631,-0.0682,1.06,0.793,inactive: -0.0662,0.333,0.0587
CN1/C(=N\P(=O)(Oc2ccccc2)Oc2ccccc2)CC(CCCO)=CC1C1CC1 (stereo not given),0.419,1.87,-0.0468,0.446,1.21,2.33,0.688,inactive: -1.46,0.36,0.184
O=P(/N=C1/CC(CCCO)=CC(C2CC2)N1Cc1cccc(OC(F)(F)F)c1)(Oc1ccccc1)Oc1ccccc1 (stereo not given),-0.17,-0.227,-0.116,-0.16,-0.224,1.85,0.966,inactive: 0.728,0.123,-0.193
COP(=O)(/N=C1/CC(CCCO)=CC(C2CC2)N1Cc1cc2c(cc1Br)OCO2)OC (stereo not given),0.247,0.851,0.0338,0.327,0.17,1.74,0.523,inactive: -1.31,0.123,-0.161
O=P(/N=C1/CC(CCCO)=CC(C2CC2)N1Cc1sc2ccccc2c1Cl)(Oc1ccccc1)Oc1ccccc1 (stereo not given),0.169,-0.264,-0.0036,0.345,0.828,1.82,1.05,inactive: 0.354,0.657,-0.0296
COP(=O)(/N=C1/CC(CCCO)=CC(c2ccc(CN3CCCC3)cc2)N1Cc1sc2ccccc2c1Cl)OC (stereo not given),1.19,1.21,0.177,0.217,-0.062,0.0541,-0.456,inactive: 1.6,1.73,0.141
COP(=O)(/N=C1/CC(CCCO)=CC(c2ccc(CN3CCCC3)cc2)N1Cc1cc2c(cc1Br)OCO2)OC (stereo not given),0.822,0.451,0.0192,0.659,0.0945,0.571,-0.0554,inactive: -1.48,0.714,-0.242
COP(=O)(/N=C1/CC(c2ccc(CO)cc2)=CC(C2CC2)N1C)OC (stereo not given),-0.435,0.281,-0.0525,0.275,-0.223,1.94,0.186,inactive: 0.116,0.0588,0.481
O=P(/N=C1/CC(CCCO)=CC(c2ccc(CN3CCCC3)cc2)N1Cc1cc2c(cc1Br)OCO2)(Oc1ccccc1)Oc1ccccc1 (stereo not given),-0.377,-0.0922,-0.163,0.3,0.116,2.33,0.35,inactive: -0.787,0.133,-0.0296
COP(=O)(/N=C1/CC(CCCO)=CC(C2CC2)N1Cc1sc2ccccc2c1Cl)OC (stereo not given),1.98,-0.0324,0.122,0.931,1.13,0.96,0.699,inactive: 0.125,1.33,1.42
COP(=O)(/N=C1/CC(CCCO)=CC(c2ccc(CN3CCCC3)cc2)N1C)OC (stereo not given),0.143,0.0238,0.0204,0.0696,-0.238,0.293,-0.579,inactive: -1.17,0.667,-0.161
COP(=O)(/N=C1/CC(CCCO)=CC(c2ccc(CN3CCCC3)cc2)N1Cc1cccc(OC(F)(F)F)c1)OC (stereo not given),0.411,1.02,0.0717,0.802,1.02,1.8,0.628,inactive: -1.25,0.814,0.351
COP(=O)(/N=C1/CC(c2ccc(CO)cc2)=CC(C2CC2)N1Cc1cc2c(cc1Br)OCO2)OC (stereo not given),-0.0398,0.0771,-0.0363,0.924,0.662,1.27,-0.202,inactive: -2.81,0.86,0.273
O=P(/N=C1/CC(CCCO)=CC(C2CC2)N1Cc1cc2c(cc1Br)OCO2)(Oc1ccccc1)Oc1ccccc1 (stereo not given),0.303,-0.028,0.0036,0.0841,0.475,2.07,1.21,inactive: -0.697,0.17,-0.0373
O=P(/N=C1/CC(CCCO)=CC(c2cccs2)N1Cc1cc2c(cc1Br)OCO2)(Oc1ccccc1)Oc1ccccc1 (stereo not given),-0.292,0.237,-0.0342,0.795,1.58,1.81,1.18,inactive: -2.92,0.977,0.213
CC1C=C(CCCO)C/C(=N/P(=O)(Oc2ccccc2)Oc2ccccc2)N1Cc1cccc(OC(F)(F)F)c1 (stereo not given),-0.252,0.107,-0.0691,-0.137,0.0809,1.37,0.873,inactive: -0.332,0.429,0.527
CN1/C(=N\P(=O)(Oc2ccccc2)Oc2ccccc2)CC(CCCO)=CC1c1ccc(CN2CCCC2)cc1 (stereo not given),-0.15,0.314,0.0243,0.977,1.23,2.11,0.702,inactive: -0.55,0.193,0.245
CN1/C(=N\P(=O)(Oc2ccccc2)Oc2ccccc2)CC(c2ccc(CO)cc2)=CC1C1CC1 (stereo not given),-0.831,1.61,-0.242,0.0993,0.727,2,1.33,inactive: -3.86,-0.424,-0.304
